# Patent US4393178A, “Fast crystallizing polyester compositions” (priority 1979, dated 1983)
# Assay: Solubility parameter δ of the acid; note: unit not given here
# Conditions: product for the acid
row,Compound,δ × pKH.sbsb.2O
1,O=C(O)c1ccccc1O [ortho-ONa-benzoic acid],42
2,O=C(O)c1ccccc1O [ortho-hydroxy benzoic acid],42
